Measurements reported in PMC5595947 (British Journal of Clinical Pharmacology, 2017).

Sequences of proteins named here, by UniProt entry; tags and fusion partners are left off.
UniProt P10635, whole entry: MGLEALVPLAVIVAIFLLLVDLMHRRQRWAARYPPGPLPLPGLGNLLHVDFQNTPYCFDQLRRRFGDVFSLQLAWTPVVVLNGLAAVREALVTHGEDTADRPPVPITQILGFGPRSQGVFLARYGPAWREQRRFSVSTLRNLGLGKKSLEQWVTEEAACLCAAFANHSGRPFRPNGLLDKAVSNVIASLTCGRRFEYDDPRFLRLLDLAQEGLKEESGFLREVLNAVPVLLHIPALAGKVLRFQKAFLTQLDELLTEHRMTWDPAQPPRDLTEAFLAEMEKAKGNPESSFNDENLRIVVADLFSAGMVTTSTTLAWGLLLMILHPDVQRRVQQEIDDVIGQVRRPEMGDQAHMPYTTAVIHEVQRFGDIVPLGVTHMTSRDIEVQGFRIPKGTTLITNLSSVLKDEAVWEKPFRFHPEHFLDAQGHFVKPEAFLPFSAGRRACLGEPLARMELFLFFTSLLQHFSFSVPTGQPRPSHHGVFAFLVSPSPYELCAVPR

Legend:
[1] = target: CYP2D6 (Homo sapiens, UniProt P10635); conditions: HLM, 30‐min preincubation
[2] = single dose; poor CYP2D6 metabolizers; cited from earlier work

decrease in IC50 values (NADPH‐dependent) [1]: < 1.3 fold
SMILES: CCCN1CCC(c2cccc(S(C)(=O)=O)c2)CC1 [pridopidine, 4‐[3‐(methylsulfonyl)phenyl]‐1‐propylpidperidine]
elimination half‐life (t1/2) [2]: ~15 h
